Results taken from article PMC6912599 (European journal of medicinal chemistry, 2018).

Biological target: T1, α1β3 GABAAR (Homo sapiens, UniProt P14867+P28472)
T1 sequence (P14867 28-456): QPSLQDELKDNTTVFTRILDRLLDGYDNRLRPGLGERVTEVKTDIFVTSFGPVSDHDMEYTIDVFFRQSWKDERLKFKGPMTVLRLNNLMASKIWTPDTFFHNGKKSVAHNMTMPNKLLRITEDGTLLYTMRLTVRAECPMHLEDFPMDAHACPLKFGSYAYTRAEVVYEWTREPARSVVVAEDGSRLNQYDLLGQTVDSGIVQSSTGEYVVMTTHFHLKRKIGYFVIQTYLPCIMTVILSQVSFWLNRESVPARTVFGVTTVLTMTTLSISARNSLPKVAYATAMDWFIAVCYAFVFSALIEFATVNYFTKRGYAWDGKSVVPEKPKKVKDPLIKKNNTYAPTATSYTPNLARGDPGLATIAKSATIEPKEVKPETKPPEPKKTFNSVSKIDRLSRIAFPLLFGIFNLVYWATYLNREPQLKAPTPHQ
T1 sequence (P28472 26-473): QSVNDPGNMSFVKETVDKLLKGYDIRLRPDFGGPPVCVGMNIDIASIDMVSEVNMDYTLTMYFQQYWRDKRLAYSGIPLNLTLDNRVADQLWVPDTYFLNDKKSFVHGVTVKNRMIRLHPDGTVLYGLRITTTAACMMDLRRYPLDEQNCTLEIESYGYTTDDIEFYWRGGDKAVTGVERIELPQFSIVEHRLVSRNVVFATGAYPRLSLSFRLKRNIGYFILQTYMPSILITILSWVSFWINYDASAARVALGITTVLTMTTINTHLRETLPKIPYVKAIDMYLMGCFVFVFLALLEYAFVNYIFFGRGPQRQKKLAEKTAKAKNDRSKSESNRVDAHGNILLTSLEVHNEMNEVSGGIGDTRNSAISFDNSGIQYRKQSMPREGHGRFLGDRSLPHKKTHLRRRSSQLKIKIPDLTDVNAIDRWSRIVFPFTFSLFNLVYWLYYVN
Assay: Inhibition of [3H]21-pTFDBzox-AP photolabeling of purified α1β3 GABAAR
Format: binding
Details: purified α1β3 receptor; β3 subunit incorporation; 300 μM GABA

For pregnenolone sulfate, the “IC50 inhibition of photolabeling with [3H]21-pTFDBzox-AP” value was “No effect”.
